Laboratory results taken from patent US11305024B2, “Cross-linked polymer modified nanoparticles” (OREGON HEALTH & SCIENCE UNIVERSITY, priority 2015, dated 2022).

Assays:
HCC1954 tumor xenografts = test: Tumor growth in orthotopic HCC1954 tumor xenografts; type: in vivo, mice; conditions: multiple doses
Description: In vivo gene silencing studies were performed in orthotopic mouse tumor models; 4×10^6 HCC1954 cells (unless specified otherwise) were implanted into the mammary fat pads of 5-week-old SCID mice (Charles River, Wilmington, Mass.) and allowed to grow to an average size of about 250 mm^3. Mice were then grouped and proceeded to receive a single injection (tail vein) of the nanoconstructs (T-siHER2-NP^10C or T-siSCR-NP^10C, 1.25 mg/kg siRNA), or the PBS control. The tumors were harvested four days after treatment and analyzed for HER2 protein expression by immunofluorescence as shown in FIG. 16A and quantified in FIG. 16B. […] It should be noted that 23% (p=0.27 vs. saline control) of the HER2 reduction in the siSCR control is likely due to trastuzumab on the nanoconstructs.
This response is noteworthy since HCC1954 has been established as resistant to cisplatin (I. Beyer et al., 2012), trastuzumab (I. Beyer et al., 2012), and pertuzumab (F. Henjes, et al., 2012) in vitro and/or in mice.

BT474-R = test: Cell viability in resistant BT474-R versus parental BT474; type: cell-based; conditions: cell viability 5 days post-treatment; 60 nM siRNA for nanoconstructs
Description: FIGS. 13A-13C show the effect of trastuzumab and siHER2-nanoconstructs on cell viability. FIG. 13A is a graph showing BT474-R to be resistant to trastuzumab, compared to parental BT474. FIG. 13B is a graph showing the ability of T-siHER2-NP^10C to achieve the same response in BT474-R and BT474 with respect to siHER2 action, while FIG. 13C is a graph showing that trastuzumab on a nanoconstruct without siHER2 (T-siSCR-NP^10C) elicits less of a response in the resistant BT474-R cells. 60 nM siRNA was used, and cell viability was measured 5 days post-treatment with media replenished overnight after treatment.
The efficacy of T-siHER2-NP^10C in intrinsically trastuzumab-resistant HER2+ cell lines (HCC1954 and JIMT1), in a parental HER2+ cell line (BT474) that responds to trastuzumab and lapatinib, and in BT474-R, a derivative cell line that was made lapatinib-resistant by long-term treatment with 1 μM lapatinib was also assessed.

BT474-TRgf xenografts = test: Tumor growth in BT474-TRgf xenografts; type: in vivo, mice; conditions: tumor mouse model, i.v.
Description: FIGS. 20A-20B show tumor growth in mice bearing trastuzumab-resistant tumor xenografts following nanoconstruct treatment. FIG. 20A is a graph showing BT474-TRgf to be resistant to trastuzumab in vitro compared to parental BT474. FIG. 20B is a graph showing tumor growth in mice bearing BT474-TRgf xenografts (n=5-7/group) post i.v. injection with saline, trastuzumab (2.5 mg/kg, twice weekly) or trastuzumab-conjugated nanoconstruct (T-NP) loaded with siHER2 or siSCR at the time points indicated by arrows. Black indicates 1.25 mg siRNA/kg, and gray indicates 2.5 mg siRNA/kg.
(§1) In another example, BT474-TRgf (BT474 variant developed to be resistant to trastuzumab by serial passaging the cells in mice, Francia et al., 2012) was used to evaluate the efficacy of T-siHER2-NP. While the BT474-TRgf cells were resistant to trastuzumab in vitro (FIG. 20A) and in a tumor mouse model (FIG. 20B), they responded to T-siHER2-NP treatment in the tumor model (FIG. 20B). siHER2 dose was 1.25-2.5 mg/siRNA and 5 animals per treatment group.

HCC1954 = conditions: in vitro and/or in mice; cited from earlier work
HER2+ cell lines = test: Growth inhibition by siHER2 in a panel of HER2+ cell lines; type: cell-based; conditions: 30 μg/ml trastuzumab
Source text: The exemplary siHER2 was selected by measuring the efficacy and specificity with which it reduced HER2 mRNA levels and growth in HER2^+ cell lines but not HER2^− cell lines.

BT474-TRgf = test: Response of BT474-TRgf cells in vitro; type: cell-based
Description: as §1

trastuzumab
tumor growth (HCC1954 tumor xenografts): resistance in vivo
response of BT474-R compared to parental BT474 (BT474-R): much less responsive
response of BT474-TRgf tumors (BT474-TRgf xenografts): resistant
resistance of HCC1954 (HCC1954): resistant
response of the HER2+ cell lines to trastuzumab (HER2+ cell lines): 14 out of 20 cells did not respond
response of BT474-TRgf cells (BT474-TRgf): resistant
